The list shows a part of the results.

The test has as its system A. baumannii ATCC 17978. Put plainly: relative growth (fraction of control); higher = less inhibition. The note with it: 50 µM.
`C[C@@H]1CN([C@@H](C)CO)C(=O)c2cc(Br)cnc2O[C@H]1CN(C)S(=O)(=O)c1ccc(F)cc1`: the relative growth worked out at 0.946.

On to `CC(C)(C)c1cc(C(C)(C)C)n(-c2ccc(-n3cccc3)cc2)n1`, for which the relative growth was 1.23. Regarding `CN(C)CC(=O)N[C@H]1CC[C@@H](CCNC(=O)C2CC2)O[C@H]1CO`, the relative growth stood at 1.14. The result for `O=C(CN1CCOCC1)N[C@@H]1CC[C@@H](CCNC(=O)Nc2cc(F)ccc2F)O[C@@H]1CO` reads 1.1; that for `O=C(O)c1nn(Cc2ccccc2)nc1C(=O)O`, 0.967; that for `Cc1cccc(O)c1`, 0.833.

Take `Cc1cccc(C)c1Nc1nc2c(C)cc(C)c(C)c2s1`: the relative growth was 0.963. The figure for `Cc1ccc(S(=O)(=O)N2C[C@H](O)COC[C@H]3O[C@@H](CC(=O)NCc4ccc5c(c4)OCO5)CC[C@@H]32)cc1` is 1.04; for `O=C(C[C@H]1CC[C@H]2[C@@H](COC[C@@H](O)CN2C(=O)c2ccncc2)O1)NCc1ccc(-c2ccccc2)cc1` it is 0.987.

`O=C(O)/C=C/c1ccc(O)c(O)c1`: the relative growth was found to be 1.05. `CC(CCc1ccccc1)NCC(O)c1ccc(O)c(C(N)=O)c1.Cl` (configuration not stated) displayed a relative growth of 0.891. The result for `CN(C)c1nc2cc(Cl)ccc2o1` reads 0.937; that for `C[C@@H]1CN([C@@H](C)CO)S(=O)(=O)c2ccc(C#CCN(C)C)cc2O[C@@H]1CN(C)S(C)(=O)=O`, 1.08. The result for `O=C(C[C@@H]1C=C[C@@H](NC(=O)c2cccc(F)c2)[C@@H](CO)O1)NCCN1CCCC1` reads 1.07. The figure for `O=C(C[C@@H]1C[C@H]2c3cc(NC(=O)Nc4ccc(C(F)(F)F)cc4)ccc3O[C@H]2[C@H](CO)O1)NC1CCCCC1` is 1.09; for `C=CC[C@@H](CC(=O)NCCO)C(=O)N[C@H](COC(=O)[C@@H](CC=C)CC(=O)OC(C)(C)C)Cc1ccccc1` it is 0.819; for `C[C@@H]1CC[C@@]2(OC1)OC1CC3C4CC=C5C[C@@H](O)CC[C@]5(C)C4CC[C@]3(C)C1[C@@H]2C` (some centres not stated) it is 1.13. In the case of `O=S1(=O)COC[C@@H](c2ccccc2)N1`, the relative growth turned out to be 1.08. The result for `CN(C)CC(=O)N[C@@H]1CC[C@H](CC(=O)NCCN2CCCCC2)O[C@H]1CO` reads 0.987. The result for `CO/N=C1\CN(c2nc3c(cc2F)c(=O)c(C(=O)O)cn3C2CC2)CC1CN.CS(=O)(=O)O` (configuration not stated) reads 0.132.

Turning to `CC(C)(C)NC(=O)[C@@H]1CN(Cc2cccnc2)CCN1C[C@H](O)C[C@H](Cc1ccccc1)C(=O)N[C@@H]1c2ccccc2C[C@@H]1O`, the relative growth is 0.979. The result for `CC[C@]1(O)CC2CN(CCc3c([nH]c4ccccc34)[C@@](C(=O)OC)(c3cc4c(cc3OC)N(C)[C@H]3[C@@](O)(C(=O)OC)[C@H](OC(C)=O)[C@]5(CC)C=CCN6CC[C@]43[C@@H]65)C2)C1.O=S(=O)(O)O` (some centres not stated) reads 0.965; that for `C[C@H]1Cc2cc(S(=O)(=O)N(C)CC(=O)N3CCOCC3)ccc2N1C(=O)C1CC1`, 1.1. The figure for `COc1cccc(NC(=O)N[C@H]2C=C[C@@H](CC(=O)N3CCOCC3)O[C@H]2CO)c1` is 1.13. The result for `C[C@H](CO)N1C[C@H](C)[C@H](CN(C)C(=O)c2ccccn2)Oc2cc(C#Cc3ccc(F)cc3)ccc2S1(=O)=O` reads 0.799; that for `CCOC(=O)NNc1nncc2ccccc12.Cl`, 0.927. Consider `NCC[C@@H]1CC[C@H](NC(=O)C2CC2)[C@H](CO)O1`, for which the relative growth was 0.95. The result for `O=C(O)[C@@H]1CC(=O)N(Cc2cccnc2)C1` reads 1.17.

Regarding `Cc1cc(=O)oc2cc(O)c(O)cc12`, the relative growth turned out to be 0.937. The result for `COc1ccc(CC2c3cc(OC)c(OC)cc3CC[N+]2(C)CCC(=O)OCCCCCOC(=O)CC[N+]2(C)CCc3cc(OC)c(OC)cc3C2Cc2ccc(OC)c(OC)c2)cc1OC.O=S(=O)([O-])c1ccccc1.O=S(=O)([O-])c1ccccc1` (configuration not stated) reads 1.11; that for `C[C@H]1CCCCN1C(=O)CCS(=O)(=O)c1ccc2c(c1)n(C)c(=O)c(=O)n2C`, 1.05; that for `CCCC#Cc1cnc2c(c1)C(=O)N([C@H](C)CO)C[C@H](C)[C@H](CN(C)S(=O)(=O)c1cn(C)cn1)O2`, 0.995. The figure for `C[C@H](CO)N1C[C@H](C)[C@H](CN(C)C(=O)Nc2cccc(F)c2)Oc2cc(C#CC3(O)CCCC3)ccc2S1(=O)=O` is 0.733; for `COc1ccc(CCNC(=O)[C@@]2(Cc3ccccc3I)c3ccccc3C(=O)N(C3CCCCC3)[C@H]2c2ccc(CO)cc2)cc1` it is 1.16; for `Cc1c(C(=O)O)sc(=O)n1C` it is 1.2.

Compound `C=C1CC2C3C=C(C)C4=CC(=O)CC[C@]4(C)C3CC[C@]2(C)[C@@]1(OC(C)=O)C(C)=O` (some centres not stated) returned a relative growth of 0.98. The result for `O=C(C[C@H]1CC[C@@H]2[C@H](COC[C@@H](O)CN2S(=O)(=O)c2ccc(F)cc2)O1)NCCN1CCCCC1` reads 0.953.

`C[C@@H]1CN([C@H](C)CO)S(=O)(=O)c2ccc(C#Cc3ccc(F)cc3)cc2O[C@H]1CN(C)S(=O)(=O)c1cn(C)cn1` displayed a relative growth of 0.928. `CO[C@@H]1CN(C)C(=O)c2ccc(NC(=O)Nc3ccccc3)cc2OC[C@@H](C)N(C(=O)CN(C)C)C[C@@H]1C` gave a relative growth of 0.998. Compound `COc1cc(O)c(C(=O)c2ccccc2)cc1S(=O)(=O)O` came in with a relative growth of 0.941. Turning to `COc1ncnc2nc[nH]c12`, the relative growth amounted to 0.917.

`CN1CCN(C(=O)CNS(=O)(=O)c2ccccc2)CC1`: the relative growth came out at 1.07.

`CC(=O)OCC(=O)[C@@]1(O)CCC2C3CC[C@@H]4C[C@H](O)CC[C@]4(C)C3C(=O)C[C@@]21C` (some centres not stated) returned a relative growth of 1.01.

The compound `CC(=O)O[C@]1(C(C)=O)CCC2C3C=C(Cl)C4=CC(=O)CC[C@]4(C)C3CC[C@@]21C` (some centres not stated) had a relative growth of 1.08. The figure for `C[C@@H]1CN([C@@H](C)CO)S(=O)(=O)c2ccc(-c3cncnc3)cc2O[C@H]1CN(C)C(=O)NC1CCCC1` is 0.852; for `COc1cc(OC)c2c(=O)c(O)c(-c3ccc(OC)c(OC)c3)oc2c1` it is 0.921. The result for `C(=N\c1cc(-c2ccccc2)nn1-c1ccccc1)/c1ccccc1` reads 1.07; that for `O=C(O)c1cn2cccc(O)c2n1`, 1.08. The result for `CCN(CC)CCOC(=O)C(c1ccccc1)C1CCCCC1.Cl` (configuration not stated) reads 0.895; that for `O=C(C[C@H]1C[C@H]2c3cc(NS(=O)(=O)c4ccc(F)cc4)ccc3O[C@H]2[C@@H](CO)O1)NCc1ccccc1F`, 1.01. Take `O=C1CN(/N=C/c2ccc(-c3ccc([N+](=O)[O-])cc3)o2)C(=O)[N-]1.[Na+]`: the relative growth amounted to 0.949. In the case of `O=C(O)CC(O)(CC(=O)O)C(=O)O`, the relative growth worked out at 0.962. The result for `CC(=O)N(C)C[C@@H]1Oc2cc(C#CCN(C)C)ccc2S(=O)(=O)N([C@H](C)CO)C[C@@H]1C` reads 0.966. As to `CC(=O)OCC(=O)[C@@]1(O)CCC2C3CCC4=CC(=O)C=C[C@]4(C)[C@@]3(Cl)[C@@H](Cl)C[C@@]21C` (some centres not stated), the relative growth is 0.883. `C=CC1=C(C)c2cc3[nH]c(cc4nc(cc5[nH]c(cc1n2)c(C)c5CCC(=O)O)C(CCC(=O)O)=C4C)c(C)c3C=C` yielded a relative growth of 1.05. The compound `CN(C)CCCNc1ncnc(N)c1[N+](=O)[O-]` showed a relative growth of 0.857. The result for `CO[C@H]1C[C@@H]2CC[C@@H](C)[C@@](O)(O2)C(=O)C(=O)N2CCCC[C@H]2C(=O)O[C@H]([C@H](C)C[C@@H]2CC[C@@H](OCCO)[C@H](OC)C2)CC(=O)[C@H](C)/C=C(\C)[C@@H](O)[C@@H](OC)C(=O)[C@H](C)C[C@H](C)/C=C/C=C/C=C/1C` reads 0.88; that for `CO[C@H]1O[C@H](COC(=O)NCCCCCC(=O)NO)[C@H](OC(=O)Nc2ccccc2)[C@H](OC(=O)Nc2ccccc2)[C@H]1OC(=O)Nc1ccccc1`, 1.08; that for `CN1C(=O)CC(c2ccccc2)C1=O` (configuration not stated), 0.901.

In turn, `COC(=O)[C@H](Cc1ccccc1)N1CC2=C[C@H](C3CC3)n3c(=O)n(C)c(=O)n3[C@@H]2[C@H]1[C@H](O)Cc1ccccc1` yielded a relative growth of 1.1. With `O=C(CCN1CCNCC1)N1CCCCC1`, the relative growth came out at 0.87. With `C[C@@H]1CN([C@@H](C)CO)S(=O)(=O)c2ccc(-c3cncnc3)cc2O[C@H]1CN(C)C(=O)c1ccc2c(c1)OCO2`, the relative growth stood at 1. The result for `COc1ccc2c(c1)c(-c1ccccc1)nn2-c1ccc(C)cc1` reads 0.974; that for `CCOc1ccc(NC2=NC(=O)/C(=C/c3cc(Br)c(OCc4ccccc4)c(OC)c3)S2)cc1`, 0.899; that for `CO[C@@H]1CN(C)C(=O)c2cc(NC(=O)NC3CCCCC3)ccc2OC[C@@H](C)N(CCc2ccccc2)C[C@@H]1C`, 1.1. The result for `CC(=O)N1CCn2nncc2C[C@@]1(C)C1CC1` reads 0.914. Compound `COCC(=O)OCn1nnc2ccccc2c1=O` returned a relative growth of 0.893.

With `Nc1ncnc2c1ncn2[C@@H]1O[C@H](CO)[C@@H](O)[C@H]1O`, the relative growth turned out to be 1.06. The figure for `COCC(=O)N1C[C@H](C)[C@H](OC)CN(C)C(=O)c2ccc(NC(=O)c3cc(C)on3)cc2OC[C@H]1C` is 1. The figure for `COc1cc2ccnc(CCCN)c2cc1OC` is 0.987. The figure for `C[C@H]1CN([C@@H](C)CO)C(=O)c2cc(C#CCc3ccccc3)cnc2O[C@@H]1CN(C)C(=O)Cc1cccnc1` is 0.998; for `NC(=O)[C@H]1Cc2ccccc2N1` it is 1.08. `COc1ccc2c(c1)OCC(Cc1ccc(O)c(OC)c1)C2=O` (configuration not stated) showed a relative growth of 0.882.

Regarding `CC(C)C#Cc1cnc2c(c1)C(=O)N([C@H](C)CO)C[C@@H](C)[C@@H](CN(C)S(=O)(=O)c1cn(C)cn1)O2`, the relative growth is 1.04. The result for `C=CC[C@@H](CC(=O)N[C@H](CO)Cc1ccccc1)C(=O)NCCOC(=O)[C@H](CC=C)CC(=O)OC(C)(C)C` reads 0.577.

`CCCOc1ccnc2c1c(=O)n(C)c(=O)n2C`: the relative growth was 0.924. The figure for `O=C(O)c1cc2ccccc2c(Cc2c(O)c(C(=O)O)cc3ccccc23)c1O.OCCOCCN1CCN(C(c2ccccc2)c2ccc(Cl)cc2)CC1` is 0.966.

The compound `C=C(C)[C@@H]1CC[C@]2(C(=O)O)CC[C@]3(C)[C@H](CCC4[C@@]5(C)CC[C@H](O)C(C)(C)C5CC[C@]43C)[C@@H]12` (some centres not stated) displayed a relative growth of 0.969. The figure for `COC(=O)[C@@H]1CC(=O)N(C(C)C)C1` is 0.979; for `CCNc1nc(=O)cc(F)[nH]1` it is 0.884; for `C[C@@H]1CN([C@@H](C)CO)S(=O)(=O)c2ccc(-c3ccncc3)cc2O[C@H]1CN(C)C(=O)c1cccc(F)c1` it is 0.991. The figure for `C[C@@H]1CN([C@@H](C)CO)S(=O)(=O)c2ccc(-c3cncnc3)cc2O[C@@H]1CN(C)C(=O)Cc1ccncc1` is 1.05.
